One assay concerns the target κ opiate receptor (Homo sapiens, UniProt P41145). In words: Opiate receptor binding affinity, κ. Conditions: read-out: Ki (nM) κ. As to the method: (§1) Dose response curves for N/OFQ are conducted in the presence of varying concentrations of the antagonist, Schild plots are constructed, and pA2 values determined. Test compounds are also tested for binding affinity, as well as selectivity versus the μ, δ, and κ opioid receptors, as shown in Example 8.
(§2) The compounds of the invention were evaluated for binding affinity to the μ, κ, and δ opitate receptors, in a manner similar to that in Example 6.

Chains of the proteins cited; added tags and fusions are not shown.
UniProt P41145, whole entry: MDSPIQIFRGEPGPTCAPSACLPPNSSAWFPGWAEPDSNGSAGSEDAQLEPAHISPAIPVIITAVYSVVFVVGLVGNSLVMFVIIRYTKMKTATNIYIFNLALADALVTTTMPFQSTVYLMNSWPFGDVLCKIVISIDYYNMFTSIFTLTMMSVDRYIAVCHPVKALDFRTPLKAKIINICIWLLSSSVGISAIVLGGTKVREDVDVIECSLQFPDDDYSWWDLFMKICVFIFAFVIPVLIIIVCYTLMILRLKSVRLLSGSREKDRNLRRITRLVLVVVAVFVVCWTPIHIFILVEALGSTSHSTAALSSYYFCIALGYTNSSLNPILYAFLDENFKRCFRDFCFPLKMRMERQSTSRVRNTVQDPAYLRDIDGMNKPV
UniProt P35372, whole entry: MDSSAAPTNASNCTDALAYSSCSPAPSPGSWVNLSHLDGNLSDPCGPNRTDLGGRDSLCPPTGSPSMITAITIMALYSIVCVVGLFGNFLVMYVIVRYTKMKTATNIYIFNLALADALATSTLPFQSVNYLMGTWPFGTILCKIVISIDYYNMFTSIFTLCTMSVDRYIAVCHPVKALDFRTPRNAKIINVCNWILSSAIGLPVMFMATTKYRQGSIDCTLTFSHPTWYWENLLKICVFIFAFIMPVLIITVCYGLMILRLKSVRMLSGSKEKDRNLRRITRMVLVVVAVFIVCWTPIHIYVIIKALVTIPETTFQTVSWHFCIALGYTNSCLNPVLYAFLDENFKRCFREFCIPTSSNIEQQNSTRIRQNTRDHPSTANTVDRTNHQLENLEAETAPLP

The target of a further assay is μ opiate receptor (Homo sapiens, UniProt P35372). The experiment in a line: Opiate receptor binding affinity, μ. Conditions: read-out: Ki (nM) μ. The protocol:
as §1, §2

This note sets out measurements from patent US20050228023A1, “Agonist and antagonist ligands of the nociceptin receptor” (published 2005).

Broadly, the Ki is a dissociation constant, usually derived from enzyme kinetics or from competition with a known ligand.

Each structure is given as a SMILES string.

`O=C1Cc2ccccc2N1C1CCN(C2CCC3CCCCC3C2)CC1` (stereo not drawn): the Ki at κ opiate receptor stood at 52.1 nM; at μ opiate receptor, 10.6 nM.
On to `O=C1Cc2ccccc2N1C1CCN(C2CCCc3ccccc32)CC1` (stereo not drawn), for which the Ki at κ opiate receptor stood at 21.5 nM; at μ opiate receptor it was 21.2 nM.
On the same counts, the results for `CC1(C)C2CCC(CN3CCC(N4C(=O)Cc5ccccc54)CC3)C1C2` (stereo not drawn) are 175 nM and 27.8 nM.
On the same counts, the results for `CC(c1ccc2c(c1)Cc1ccccc1-2)N1CCC(N2C(=O)Cc3ccccc32)CC1` (stereo not drawn) are 74.4 nM and 20.2 nM.
For `O=C1Cc2ccccc2N1C1CCN(CC2CCCCCCC2)CC1`, the inhibitory constant (Ki) on κ opiate receptor turned out to be 229 nM; at μ opiate receptor it was 14.4 nM.
For the compound `O=C1Cc2ccccc2N1C1CCN(C2CCCCCCC2)CC1`, the Ki on κ opiate receptor came out at 42.7 nM; on μ opiate receptor, 29.9 nM.
